These are literature values, as cited in patent US10874685B2, “Pancreatic cancer therapy and diagnosis” (Deutsches Krebsforschungszentrum Stiftung des Öffentlichen …, priority 2014, dated 2020).

This data set has as its system pituitary tumor cells. The following applies: cited from earlier work.

Consider `CCCN1CCC[C@@H]2Cc3n[nH]cc3C[C@H]21` [quinpirole], for which the cancer cell viability entry was “decreased significantly”.
